The structures appear in SMILES notation. The entries are a selection whose mix differs from that of the whole data set. Some of these compounds have results that are not shown, active ones among them. Activity calls are given as the source filed them.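 The calls were made as follows: active = compounds that cut the enzyme signal by at least half of the control window in the single-dose screen; inactive = the rest.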

Protein sequences, listed by entry. Tags and fused reporters are not part of them.
UniProt P24666, whole entry: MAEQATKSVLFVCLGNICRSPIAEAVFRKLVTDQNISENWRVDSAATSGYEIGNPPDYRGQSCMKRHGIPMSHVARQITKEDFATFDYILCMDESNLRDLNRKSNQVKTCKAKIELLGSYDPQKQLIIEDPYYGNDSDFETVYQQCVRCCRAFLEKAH

The test has as its target Low molecular weight phosphotyrosine protein phosphatase (Homo sapiens) (UniProt P24666). The test can be described thus: LMPTP phosphatase inhibitors, primary screen, biochemical, fluorescence intensity, uHTS (AID 651560).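 Also: plate controls were DMSO wells with enzyme plus substrate for no effect and substrate without enzyme for full effect.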 Conditions: recombinant LMPTP-A, OMFP fluorogenic substrate, at 20 µM, hits give high values. In outline:
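Test system: LMPTP-A, protein tyrosine phosphatase of low molecular weight; Input: 0.625 nM enzyme; Incubation: 50 min dark incubation at room temperature; Signal: endpoint fluorescence intensity from OMFP dephosphorylation; Read-out basis: % inhibition versus control wells.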
Regarding `O=C(NCC1(N2CCCCC2)CCCCC1)c1cc([N+](=O)[O-])ccc1Cl`, the inhibition was inactive: -0.491%.

Regarding `CN1[C@@H]2CC[C@H]1CC(OC(=O)C(O)(c1ccccc1)c1ccccc1)C2` (stereo partly specified), the inhibition is inactive: -2.06%.

For the compound `CC(C)N1C(=O)CC2(CCN(CCOC(=O)C(O)(c3ccccc3)c3ccccc3)CC2)C1=O`, the inhibition was inactive: -0.194%.

As for `COc1cc(SC)ccc1C(=O)NCC1(N(C)C)CCCCC1`, the inhibition was inactive: -1.31%.

With `CCN(CC)CC(C)C(C)OC(=O)C(O)(c1ccccc1)c1ccccc1` (stereo unspecified), the inhibition was inactive: -1.01%.

For the compound `Cc1ccc(C(=O)NCC2(N3CCCCC3)CCCCC2)cc1`, the inhibition is inactive: 1.49%.

With `CN(C)c1ccc(C(=O)NCC2(N(C)C)CCCCC2)cc1`, the inhibition is inactive: -0.262%.

Regarding `CN(C)C1CCCC1OC(=O)C(O)(c1ccccc1)c1ccccc1` (stereo unspecified), the inhibition was inactive: -2.05%.

On to `Cc1ccccc1C(=O)NCC1(N2CCCCC2)CCCCC1`, for which the inhibition was inactive: 0.153%.

On to `O=C(NCC1(N2CCCCC2)CCCCC1)c1cc(F)c(F)cc1Cl`, for which the inhibition was inactive: -0.459%.

Take `C=CCN1CCN(CCOC(=O)C(O)(c2ccccc2)c2ccccc2)CC1`: the inhibition was inactive: -0.925%.

Regarding `O=C(NCC1(N2CCCCC2)CCCCC1)c1cccc(Br)c1`, the inhibition was inactive: -0.513%.

For `CCN1CCCC(OC(=O)C2(O)c3ccccc3C=Cc3ccccc32)C1` (stereo unspecified), the inhibition was inactive: -2.2%.

As to `Cc1cc(C(=O)NCC2(N3CCCCC3)CCCCC2)ccc1[N+](=O)[O-]`, the inhibition is inactive: 0.225%.

Turning to `COc1ccc(C(=O)NCC2(N(C)C)CCCCC2)cc1`, the inhibition was inactive: -0.0208%.

In the case of `CN(C)C1(CNC(=O)c2ccc(Br)cc2)CCCCC1`, the inhibition was inactive: -1.04%.

With `COc1cc(C(=O)NCC2(N(C)C)CCCCC2)c([N+](=O)[O-])cc1OC`, the inhibition is inactive: -0.456%.

As for `COc1ccc(Cl)cc1C(=O)NCC1(N(C)C)CCCCC1`, the inhibition was inactive: -0.945%.

Consider `COc1cccc(C(=O)NCC2(N3CCCCC3)CCCCC2)c1`, for which the inhibition is inactive: -2.3%.

As for `O=C(NCC1(N2CCCCC2)CCCCC1)c1cccc(Cl)c1`, the inhibition was inactive: -0.701%.

In the case of `O=C(OC1CN2CCC1CC2)C(CO)(c1ccccc1)c1ccccc1` (stereo unspecified), the inhibition was inactive: -0.0851%.

As to `COc1ccc(Br)c(C(=O)NCC2(N3CCCCC3)CCCCC2)c1`, the inhibition was inactive: 9.59%.

`C=C(C)C#CC(O)(C(=O)OC1CCN(C)CC1)c1ccccc1` (stereo unspecified): the inhibition was inactive: -0.259%.

Consider `CN(C)c1cccc(C(=O)NCC2(N(C)C)CCCCC2)c1`, for which the inhibition was inactive: -0.259%.

With `O=C(OCCN1CCCC1)C(O)(c1ccccc1)c1ccccc1`, the inhibition was inactive: -1.01%.

As to `CC(C)Oc1ccc(C(=O)NCC2(N(C)C)CCCCC2)cc1`, the inhibition was inactive: -1.7%.

A word on the inhibition: it is the change of the read-out against control, counted positive when it falls.

The values are drawn from PubChem BioAssay AID651560 (Sanford-Burnham Center for Chemical Genomics, 2012).
